What was measured:
human mu receptor = human mu receptor (Homo sapiens, UniProt P35372); experiment: Human Mu Receptor Binding (3H-DAMGO, human clone membranes); conditions: 3H-DAMGO 5nM, CHO-K1 clone hmu5 membranes
B2 receptor = B2 receptor (Cavia porcellus, UniProt O70526); experiment: B2 receptor antagonist activity on guinea pig ileum (inhibition of myotropic activity of bradykinin, pA2); conditions: Schild pA2 against bradykinin
[1] = system: carrageenan induced edema in the rat hind paw; experiment: Rat Carrageenan Paw Edema; assay type: in vivo; conditions: s.c. 30 min before carrageenan 1% subplantar, 0-6 h
[2] = system: mustard oil induced neurogenic inflammation in the rat hind paw; experiment: Mustard Oil-induced neurogenic inflammation in the Rat; assay type: in vivo; conditions: compared to saline controls, at the doses used
[3] = system: response time of mice exposed to a hot surface; experiment: Mouse Hot Plate; conditions: 55° C. surface, up to 240 minutes, all doses studied
[4] = system: paw licking following formalin injection; experiment: Mouse Formalin Test; assay type: in vivo

Sequences of proteins named here, by UniProt entry; tags and fusion partners are left off.
UniProt P35372, whole entry, looked up: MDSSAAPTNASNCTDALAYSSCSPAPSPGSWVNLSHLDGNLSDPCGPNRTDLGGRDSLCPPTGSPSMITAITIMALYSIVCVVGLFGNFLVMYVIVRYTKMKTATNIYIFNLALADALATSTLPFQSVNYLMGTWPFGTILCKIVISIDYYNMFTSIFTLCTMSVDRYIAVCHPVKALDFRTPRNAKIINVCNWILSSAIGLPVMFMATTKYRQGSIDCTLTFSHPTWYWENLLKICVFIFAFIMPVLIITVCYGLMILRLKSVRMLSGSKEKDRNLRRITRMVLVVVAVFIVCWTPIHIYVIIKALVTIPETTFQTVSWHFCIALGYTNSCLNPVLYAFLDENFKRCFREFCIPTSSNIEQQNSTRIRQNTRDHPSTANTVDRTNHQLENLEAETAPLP
UniProt O70526, whole entry, looked up: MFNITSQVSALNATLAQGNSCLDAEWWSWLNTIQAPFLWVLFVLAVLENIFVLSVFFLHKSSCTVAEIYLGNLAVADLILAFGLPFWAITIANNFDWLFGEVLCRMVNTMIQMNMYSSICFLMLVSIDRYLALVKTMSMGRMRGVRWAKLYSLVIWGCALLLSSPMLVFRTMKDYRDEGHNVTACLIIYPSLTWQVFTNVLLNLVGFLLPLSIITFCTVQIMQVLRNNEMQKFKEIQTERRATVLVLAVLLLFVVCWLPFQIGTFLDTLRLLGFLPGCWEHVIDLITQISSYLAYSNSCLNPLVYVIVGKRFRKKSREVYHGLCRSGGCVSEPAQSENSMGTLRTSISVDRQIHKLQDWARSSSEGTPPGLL

Which “Mu Binding Human Clone” value (human mu receptor) does the source give for CN1CC[C@]23c4c5ccc(OCCCCCC(=O)NCCCC[C@H](NC(=O)[C@H](N)CCCNC(=N)N)C(=O)N6CCC[C@H]6C(=O)N6C[C@H](O)C[C@H]6C(=O)NCC(=O)N[C@@H](Cc6cccs6)C(=O)N[C@@H](CO)C(=O)N6Cc7ccccc7C[C@@H]6C(=O)N(CC(=O)N[C@@H](CCCNC(=N)N)C(=O)O)C6CCCCC6)c4O[C@H]2[C@@H](O)CC[C@H]3[C@H]1C5 here?
Its value is 6.1.

What about the “BK2, pA2 (GPI)” value (B2 receptor) of the same compound?
The value was 7.3.

How did the “Mu Binding Human Clone” value (human mu receptor) turn out when CN1CC[C@]23c4c5ccc(OCCCCCCCCCCCC(=O)NCCCC[C@H](NC(=O)[C@@H]6C[C@@H](O)CN6C(=O)[C@@H]6CCCN6C(=O)[C@H](CCCNC(=N)N)NC(=O)[C@H](N)CCCNC(=N)N)C(=O)N[C@@H](Cc6cccs6)C(=O)N[C@@H](CO)C(=O)N6Cc7ccccc7C[C@@H]6C(=O)N(CC(=O)N[C@@H](CCCNC(=N)N)C(=O)O)C6CCCCC6)c4O[C@H]2[C@@H](O)CC[C@H]3[C@H]1C5 [CP 853] was run?
Its value is 7.8.

What about the “BK2, pA2 (GPI)” value (B2 receptor) of the same compound?
Its value is less than 6.

With CN1CC[C@]23c4c5ccc(OCCCCCCCCCCCC(=O)NCCCCCC(=O)N[C@H](CCCNC(=N)N)C(=O)N[C@@H](CCCNC(=N)N)C(=O)N6CCC[C@H]6C(=O)N6C[C@H](O)C[C@H]6C(=O)NCC(=O)N[C@@H](Cc6cccs6)C(=O)N[C@@H](CO)C(=O)N6Cc7ccccc7C[C@@H]6C(=O)N(CC(=O)N[C@@H](CCCNC(=N)N)C(=O)O)C6CCCCC6)c4O[C@H]2[C@@H](O)CC[C@H]3[C@H]1C5 as the compound, how does the “Mu Binding Human Clone” value (human mu receptor) read?
Its value is 7.9.

What about the “BK2, pA2 (GPA)” value (B2 receptor; first part of Table I) of the same compound?
The value was 8.4.

Which “effect on carrageenan edema response” value [1] does the source give for CN1CC[C@]23c4c5ccc(O)c4O[C@H]2[C@@H](O)CC[C@H]3[C@H]1C5 here?
The value was “little to no effect”.

And the “effect on mustard oil edema response (Evan's blue dye)” value [2]?
The value was “without effect”.

What about the “time spent on the hot plate (response time)” value [3] of the same compound?
Its value is “dose dependent increase”.

What about the “Straub tail effect (centrally mediated)” value ([4]; mice in formalin test, all doses) of the same compound?
The value was “a typical Straub tail effect”.

And the “mean ED50, first phase response (50% reduction of paw licking)” value ([4]; mouse, s.c. 30 minutes before formalin, early phase 0-5 min)?
Its value is 6.7 µmol/kg.

And the “mean ED50, second phase response (50% reduction of paw licking)” value ([4]; mouse, s.c. 30 minutes before formalin, late phase 15-30 min)?
The value was 4.3 µmol/kg.

What about the “effect on first and second phase responses (paw licking time)” value ([4]; mouse, s.c., compared to vehicle control, CP-0597 at 0.3-10 mg/kg s.c.) of the same compound?
The value was “dose-dependent inhibition”.
